Measurements as given in patent US20250082765A1, “MOLECULES AS ANTICANCER AGENTS FOR TARGETED TREATMENT OF BREAST AND PROSTATE CANCER” (priority 2021, published 2025).
Like-named read-outs stand apart in the source and are kept apart here.

Assays:
[1] = female mice, 229.91 mg IV bolus, average of 6 mice
[2] = male mice, 227 mg IV bolus, average of 6 mice

Substance	average biodistribution of capecitabine in breast tissue ([1]; 0.5 hours) [ng/mL]	average biodistribution of capecitabine in breast tissue ([1]; 1 hour) [ng/mL]	average biodistribution of capecitabine in breast tissue ([1]; 2 hours) [ng/mL]	average biodistribution of capecitabine in prostate gland ([2]; 0.5 hours) [ng/mL]	average biodistribution of capecitabine in prostate gland ([2]; 1 hour) [ng/mL]	average biodistribution of capecitabine in prostate gland ([2]; 2 hours) [ng/mL]
capacitabine-citric acid-estradiol [citric acid-capecitabine-estradiol]	16.1	17.21	17.49	–	–	–
capecitabine-citric acid-dihydrotestosterone	–	–	–	13.6	16.33	17.9
